The values below are quoted from earlier work in patent publication US20240238195A1, “METHODS AND COMPOSITIONS FOR INHIBITING A NOXIOUS INSULT” (priority 2018, published 2024).

This data set deals with rats. The settings on record: cited from earlier work.

As for zinc nitrate, the “relative lethality (LD50 ranking)” value is reported as “less lethal”.
